Here are results for 1 compound from US4526891A, “Substituted alkyl amine derivatives of 6,11-dihydro-11-oxodibenz[b,e]oxepins” (Hoechst Roussel Pharmaceuticals Inc., priority 1983, dated 1985).

The assay deals with 2-phenyl-1,4-benzoquinone-induced writhing. Put plainly: 2-phenyl-1,4-benzoquinone-induced writhing test in mice (analgesia). The class given is in vivo. The note with it: oral dose. Background: Writhing tests count abdominal constrictions after an irritant is injected.

The structures appear in SMILES notation.

Consider `O=C1c2ccccc2COc2ccc(CCN3CCC(n4c(=O)[nH]c5ccccc54)CC3)cc21`, for which the “ED50 (dosage which exhibits 50% inhibition of writhing)” value is reported as 22.7 mg/kg of body weight.
